This test deals with CLP-induced polymicrobial septic shock. Kind of test: Mouse survival after cecal ligation and puncture (CLP)-induced septic shock.
Setting [1] is: +1 h post-CLP, rshCD6 1.25 mg/kg i.v., Meropenem 17 mg/kg/8 h i.p., FIG. 6B.
Where [2] appears, read: i.p. at +0 h post-CLP, rshCD6 1.25 mg/kg, Meropenem 17 mg/kg/8 h, FIG. 6A.
[3] abbreviates: i.p. at +0 h post-CLP, rshCD6 1.25 mg/kg, Erythromycin 2.75 μg/kg/8 h, FIG. 5A.
[4] abbreviates: i.p. at +1 h post-CLP, rshCD6 1.25 mg/kg, Erythromycin 2.75 μg/kg/8 h, FIG. 5B.

In patent US11324804B2, “Combined CD6 and imipenem therapy for treatment of infectious diseases and related inflammatory processes” (Sepsia Therapeutics, S.L., priority 2016, dated 2022) one finds survival data, which are given here for 3 molecules.

Turning to `C[C@@H](O)[C@H]1C(=O)N2C(C(=O)O)=C(S[C@@H]3CN[C@H](C(=O)N(C)C)C3)[C@H](C)[C@H]12` [Meropenem, (4R,5S,6S)-3-(((3S,5S)-5-(Dimethylcarbamoyl)pyrrolidin-3-yl)thio)-6-((R)-1-hydroxyethyl)-4-methyl-7-oxo-1-azabicyclo[3.2.0]hept-2-ene-2-carboxylic acid, reference compound], the survival is given as 14.28% under setting [1] and 15% under setting [2].
Consider `CC[C@H]1OC(=O)[C@H](C)[C@@H](O[C@H]2C[C@@](C)(OC)[C@@H](O)[C@H](C)O2)[C@H](C)[C@@H](O[C@@H]2O[C@H](C)C[C@H](N(C)C)[C@H]2O)[C@](C)(O)C[C@@H](C)C(=O)[C@H](C)[C@@H](O)[C@]1(C)O` [Erythromycin, (3R,4S,5S,6R,7R,9R,11R,12R,13S,14R)-6-{[(2S,3R,4S,6R)-4-(dimethylamino)-3-hydroxy-6-methyloxan-2-yl]oxy}-14-ethyl-7,12,13-trihydroxy-4-{[(2R,4R,5S,6S)-5-hydroxy-4-methoxy-4,6-dimethyloxan-2-yl]oxy}-3,5,7,9,11,13-hexamethyl-1-oxacyclotetradecane-2,10-dione, reference compound], for which the survival is, setting by setting: under setting [3], 16.6%; under setting [4], 13.3%.

B1: rshCD6: recombinantly obtained soluble human CD6 ectodomain (SEQ ID NO: 1) (protein, listed as Homo sapiens)
chain: DQLNTSSAESELWEPGERLPVRLTNGSSSCSGTVEVRLEASWEPACGALWDSRAAEAVCRALGCGGAEAASQLAPPTPELPPPPAAGNTSVAANATLAGAPALLCSGAEWRLCEVVEHACRSDGRRARVTCAENRALRLVDGGGACAGRVEMLEHGEWGSVCDDTWDLEDAHVVCRQLGCGWAVQALPGLHFTPGRGPIHRDQVNCSGAEAYLWDCPGLPGQHYCGHKEDAGVVCSEHQSWRLTGGADRCEGQVEVHFRGVWNTVCDSEWYPSEAKVLCQSLGCGTAVERPKGLPHSLSGRMYYSCNGEELTLSNCSWRFNNSNLCSQSLAARVLCSASRSLHNLSTPEVPASVQTVTIESSVTVKIENKESR
As for B1, the survival is, setting by setting: under setting [1], 26.7%; under setting [3], 22.2%; under setting [2], 37.5%; under setting [4], 20%.
